## scFv variants of Ab-95 (light chain) against a SARS-CoV-2 spike peptide

Target: peptide PDVDLGDISGINAS, taken from heptad repeat 2 (HR2) of SARS-CoV-2 spike.

The variants keep the heavy chain, the linker and the frameworks of Ab-95 (scFv order VH, a (GGGGS)3 linker, VL).
VH: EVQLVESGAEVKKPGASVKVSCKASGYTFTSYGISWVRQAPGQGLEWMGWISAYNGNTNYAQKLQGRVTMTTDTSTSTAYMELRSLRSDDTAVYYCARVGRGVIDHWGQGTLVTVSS
VL: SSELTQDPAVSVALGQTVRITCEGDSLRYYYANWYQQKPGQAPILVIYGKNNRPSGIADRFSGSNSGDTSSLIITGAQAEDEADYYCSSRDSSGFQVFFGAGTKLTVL

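Phage display of a naive human antibody library on the peptide gave the parent. AAYL52 was designed without a model: most single CDR substitutions and a random sample of double and triple ones. Affinity was read by AlphaSeq, a pooled yeast mating assay with surface-displayed partners. Binding brings cells together so that they mate, and sequencing counts the barcode pairs among the diploids. Read counts were normalised to the haploid input and turned into Kd by a linear fit to BCL2-family pairs of known affinity, for each replicate. Each pool was mated in three replicate cultures.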

Substitutions are numbered in sequence along the VL above, starting at 1 (not Kabat).
The read-out is the apparent dissociation constant on a log10 scale (nM): the lower, the stronger.
A mean of the replicates is given; it leaves out those without a signal.
"nd" means that the variant was in the library but no mating with the target was seen in that replicate; the authors take this as a sign of poor binding, and no number exists.
In this assay the parent's reference entry averaged 2.31; its copy inside this library read 2.25.

| changes | log10 Kd, replicates | log10 Kd (nM), mean | signal with controls |
|---|---|---|---|
| Y30F P54R S88W | 3.04 / 4.35 / nd | 3.69 | 2 of 9 (3.63) |
| Y31P N51A R90K | 2.79 / 2.77 / 2.49 | 2.68 | 5 of 9 (4.46) |
| N51P N52H S93P | nd / nd / nd | nd | 6 of 9 (3.67) |
| R53V R90E S92Q | 4.04 / nd / nd | 4.04 | 2 of 9 (5.12) |
| N51Y P54L D91L | nd / nd / 3.86 | 3.86 | 4 of 9 (3.80) |
| E23L R53N F98Y | nd / 4.14 / 4.04 | 4.09 | 5 of 9 (4.10) |
| Y31N K50R N51P | 3.14 / 3.26 / nd | 3.20 | 1 of 9 (4.33) |
| L27I K50V S92A | 3.19 / 4.19 / nd | 3.69 | 3 of 9 (4.32) |
| S26A D91G Q96F | 3.15 / 3.52 / 3.02 | 3.23 | 2 of 9 (3.74) |
| S26H N51G | 2.77 / 2.44 / 3.21 | 2.81 | 4 of 9 (3.79) |
| E23H D25T G49C | 4.24 / 4.35 / nd | 4.29 | 5 of 9 (3.65) |
| E23W P54C S55K | 3.06 / nd / nd | 3.06 | 4 of 9 (3.94) |
| G24S A32M S89K | nd / nd / nd | nd | 2 of 9 (3.68) |
| S88C S93E F98A | 2.76 / nd / nd | 2.76 | 1 of 9 (5.02) |
| D25E S26P Y29I | 3.45 / 2.97 / 2.79 | 3.07 | 3 of 9 (4.31) |
| N52P R53D F98C | 4.57 / nd / 1.70 | 3.14 | 1 of 9 (4.05) |
| D25A L27Q Y31G | 1.46 / 1.26 / 0.83 | 1.18 | 4 of 9 (4.40) |
| D25A R28T | 2.33 / 2.43 / 2.36 | 2.37 | 3 of 9 (4.03) |
| L27I G94Q F95Y | 2.69 / 3.08 / 2.30 | 2.69 | 3 of 9 (4.11) |
| P54I S88P S89I | nd / nd / nd | nd | 0 of 9 |
| D25Q F95G V97L | nd / nd / nd | nd | 1 of 9 (3.45) |
| G24P N51I R53T | nd / 5.25 / nd | 5.25 | 2 of 9 (4.03) |
| S92N Q96H V97Y | 2.93 / nd / nd | 2.93 | 1 of 9 (3.30) |
| G24V R28W S92Q | nd / 3.40 / nd | 3.40 | 2 of 9 (4.00) |
| S26Y S89K G94F | 4.07 / nd / nd | 4.07 | 1 of 9 (3.40) |
| R28T A32W S55M | 5.36 / 4.50 / nd | 4.93 | 3 of 9 (4.20) |
| Y30F Q96H | 2.87 / 2.80 / 3.83 | 3.17 | 4 of 9 (3.97) |
| L27H N51D N52L | 3.05 / 2.83 / 2.62 | 2.83 | 1 of 9 (4.66) |
| S55R V97Y | 3.58 / nd / 2.97 | 3.27 | 4 of 9 (3.88) |
| A32D N33M G49F | 3.75 / nd / 4.10 | 3.92 | 3 of 9 (3.92) |
| Y29M Y30F N51Y | 5.26 / 3.87 / nd | 4.56 | 1 of 9 (3.49) |
| G24N D25Y Y29G | 5.66 / nd / nd | 5.66 | 1 of 9 (3.28) |
| A32E N52F R90I | 3.74 / nd / nd | 3.74 | 2 of 9 (3.58) |
| G24K R53S F95G | 4.88 / 5.07 / nd | 4.98 | 3 of 9 (3.79) |
| L27P N52H S88Y | 3.91 / 3.42 / nd | 3.66 | 5 of 9 (3.76) |
| Y31K N33C | 4.94 / 5.72 / nd | 5.33 | 5 of 9 (3.90) |
| N52G P54I | 3.10 / 3.29 / 3.68 | 3.36 | 1 of 9 (2.94) |
| R28G Y30D R53E | 3.84 / 2.90 / nd | 3.37 | 1 of 9 (3.50) |
| Y30N R53G S89I | 2.01 / 1.97 / 1.82 | 1.93 | 3 of 9 (3.43) |
| E23N G24I S92W | 3.28 / 4.12 / nd | 3.70 | 3 of 9 (3.86) |
| Y30K S88Q F95K | nd / nd / nd | nd | 3 of 9 (3.94) |
| S26E R28D F95R | 3.53 / 3.78 / 4.44 | 3.92 | 2 of 9 (4.64) |
| N52Y R53M V97W | 4.35 / 3.17 / nd | 3.76 | 4 of 9 (3.69) |
| A32Q S55P V97L | 5.26 / 5.38 / nd | 5.32 | 4 of 9 (3.42) |
| S26R A32W G94H | 3.68 / 5.93 / 4.19 | 4.60 | 4 of 9 (4.42) |

The 6 strongest on average among those seen in every replicate, once more:

changes,"log10 Kd, replicates","log10 Kd (nM), mean",signal with controls
D25A L27Q Y31G,1.46 / 1.26 / 0.83,1.18,4 of 9 (4.40)
Y30N R53G S89I,2.01 / 1.97 / 1.82,1.93,3 of 9 (3.43)
D25A R28T,2.33 / 2.43 / 2.36,2.37,3 of 9 (4.03)
Y31P N51A R90K,2.79 / 2.77 / 2.49,2.68,5 of 9 (4.46)
L27I G94Q F95Y,2.69 / 3.08 / 2.30,2.69,3 of 9 (4.11)
S26H N51G,2.77 / 2.44 / 3.21,2.81,4 of 9 (3.79)

Background: pairings of library AAYL52 with three empty control strains gave a value in 28% of cases (median 3.91, 5th percentile 2.90). Values in that range, when seen in few replicates, are hard to tell from nonspecific mating. For each scFv, signals with the empty controls are counted beside the result, with their mean in brackets.

From the AlphaSeq antibody data of Engelhart et al. 2022 (doi:10.1038/s41597-022-01779-4), copy in the FLAb collection.